# Values quoted from earlier work as cited in patent US20250205375A1, “HER3 RADIOIMMUNOTHERAPY FOR THE TREATMENT OF SOLID CANCERS” (ACTINIUM PHARMACEUTICALS, INC., priority 2023, published 2025).
# Chains of the proteins cited; added tags and fusions are not shown.
# UniProt P09874, whole entry, species assumed: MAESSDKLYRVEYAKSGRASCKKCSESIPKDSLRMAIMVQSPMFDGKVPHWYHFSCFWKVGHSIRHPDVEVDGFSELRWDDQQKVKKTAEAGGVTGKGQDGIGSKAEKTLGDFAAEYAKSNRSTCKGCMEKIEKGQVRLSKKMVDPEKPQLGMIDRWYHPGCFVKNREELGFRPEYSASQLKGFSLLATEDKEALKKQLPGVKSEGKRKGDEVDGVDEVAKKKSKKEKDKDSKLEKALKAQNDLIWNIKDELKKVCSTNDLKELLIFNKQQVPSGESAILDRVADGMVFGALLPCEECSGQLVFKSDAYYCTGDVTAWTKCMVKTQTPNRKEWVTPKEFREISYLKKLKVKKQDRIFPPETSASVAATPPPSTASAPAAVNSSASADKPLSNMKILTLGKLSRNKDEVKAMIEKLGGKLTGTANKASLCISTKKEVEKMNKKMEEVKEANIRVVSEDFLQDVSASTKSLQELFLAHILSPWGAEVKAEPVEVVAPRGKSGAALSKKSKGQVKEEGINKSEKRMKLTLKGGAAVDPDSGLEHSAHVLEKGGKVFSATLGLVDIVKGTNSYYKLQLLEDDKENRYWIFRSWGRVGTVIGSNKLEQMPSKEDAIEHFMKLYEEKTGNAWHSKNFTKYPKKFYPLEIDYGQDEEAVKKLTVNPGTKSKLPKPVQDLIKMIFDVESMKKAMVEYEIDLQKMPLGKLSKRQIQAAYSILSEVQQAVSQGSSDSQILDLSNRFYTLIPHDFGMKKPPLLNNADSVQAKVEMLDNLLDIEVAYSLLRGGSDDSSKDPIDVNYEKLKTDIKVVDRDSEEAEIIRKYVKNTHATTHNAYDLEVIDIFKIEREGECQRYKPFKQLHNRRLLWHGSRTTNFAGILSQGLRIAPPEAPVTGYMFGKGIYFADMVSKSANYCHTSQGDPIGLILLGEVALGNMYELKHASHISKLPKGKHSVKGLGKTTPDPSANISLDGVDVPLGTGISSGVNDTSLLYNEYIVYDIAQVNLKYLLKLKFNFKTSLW
# Molecular target: PARP1 (Homo sapiens, UniProt P09874)
# Details: compared with veliparib; cited from earlier work
compound,measurement,value
Cn1ncnc1[C@H]1c2n[nH]c(=O)c3cc(F)cc(c23)N[C@@H]1c1ccc(F)cc1 [talazoparib],trapping PARP1,more effective
